The nature of this data set: Human zinc insulin oral delivery in rats, serum insulin by ELISA. Conditions: oral dosing with human insulin alone, previous experiments. The method, then:
Oral dosing (PO) compositions of delivery agent compound and human zinc insulin (minimum 26 IU/mg available from Calbiochem—Novabiochem Corp, La Jolla, Calif.) were prepared in deionized water. […] The solution was vortexed, then heated (about 37° C.) and sonicated. The pH was adjusted to about 7 to 8.5 with NaOH or HCl. […] About 1.25 mg insulin from an insulin stock solution (15 mg/ml made from 0.5409 g insulin and 18 ml deionized water, adjusting with HCl and NaOH to pH 8.15 and to obtain a clear solution using 40 ml concentrated HCl, 25 ml 10N NaOH and 50 ml 1N NaOH) was added to the solution and mixed by inverting.
A dosing group of five animals was administered one of the dosing solutions. […] The syringe was filled with dosing solution by drawing the solution through the catheter, which was then wiped dry. The catheter was placed down the esophagus leaving 1 cm of tubing past the incisors. The dosing solution was administered by pressing the syringe plunger.
Serum insulin levels were determined with an Insulin ELISA Test Kit (Kit # DSL-10-1600 from Diagnostic Systems Laboratories, Inc., Webster, Tex.), modifying the standard protocol in order to optimize the sensitivity and linear range of the standard curve for the volumes and concentrations of the samples used in the present protocol. […]

These results are taken from patent publication US8273794B2, “Compounds and compositions for delivering active agents” (Emisphere Technologies, Inc., priority 2004, dated 2012).

On to human insulin, for which the “levels of human insulin following oral dosing” value was “no measurable levels”.
